This passage reports half-life results from ChEMBL document CHEMBL5329208 (RSC Med Chem, 2023).

This data set is described as follows: Metabolic stability in human liver microsome assessed as half life preincubated for 10 mins followed by NADPH addition and measured after 60 mins by LC-MS/MS analysis. Format: ADME. As to conditions: liver microsomes, time 70 min.

The structures appear in SMILES notation.

Consider `O=C(O)Cc1ccccc1Nc1c(Cl)cccc1Cl` [DICLOFENAC], for which the half-life amounted to 5.9 min.
